# scFv variants of Ab-91 (heavy chain) against a SARS-CoV-2 spike peptide

Data: MIT Lincoln Laboratory AlphaSeq set, Engelhart et al. 2022, doi:10.1038/s41597-022-01779-4, as distributed in FLAb.

All variants were tested on one target, the spike HR2 peptide PDVDLGDISGINAS (SARS-CoV-2).

Parent scFv Ab-91: VL joined to VH by a 15-residue (Gly4Ser)3 linker. Changes lie in the heavy chain CDRs alone.
VL: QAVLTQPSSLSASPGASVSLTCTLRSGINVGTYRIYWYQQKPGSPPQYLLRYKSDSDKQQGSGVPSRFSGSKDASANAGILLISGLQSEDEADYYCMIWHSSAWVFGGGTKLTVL
VH: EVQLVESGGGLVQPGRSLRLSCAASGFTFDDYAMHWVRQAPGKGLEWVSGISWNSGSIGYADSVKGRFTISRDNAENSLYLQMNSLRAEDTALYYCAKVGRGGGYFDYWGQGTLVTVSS

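Library AAYL51 holds single substitutions and randomly drawn double and triple substitutions in the CDRs. AlphaSeq pools MATa yeast showing the antibodies with MATalpha yeast showing the peptide. Pairs that bind mate more often; barcode pairs of the diploids are counted by sequencing. Read counts were normalised to the haploid input and turned into Kd by a linear fit to BCL2-family pairs of known affinity, for each replicate. Mating was done three times.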

Positions count from residue 1 of the parent VH; F29V puts V in place of F. The read-out is the apparent dissociation constant on a log10 scale (nM): the lower, the stronger. The mean shown is taken over the replicates in which the pair was detected. An entry "ND" has no value in the source: the pair was not observed among the diploids in that replicate. This suggests poor binding but is not conclusive. Nonspecific signal, from three strains lacking the peptide, appeared in 21% of pairings of library AAYL51, centred on 4.54 (5% of these signals below 3.26); values are not corrected for it. In this assay the parent's reference entry averaged 1.86; its copy inside this library read 0.88.

changes,"log10 Kd, replicates","log10 Kd (nM), mean"
F29V/A61R/R101V,ND ND ND,ND
H35R/G59I/Y108N,4.99 ND ND,4.99
V64E/G102S/Y105M,ND ND 3.00,3.00
T28G/S55K/I58R,ND ND ND,ND
M34P/V64I/R101Y,4.26 4.57 ND,4.41
G59Y/A61P/R101V,4.38 4.43 4.19,4.33
T28F/S52L/F106M,ND 3.87 ND,3.87
F27K/I51N/S52D,ND ND ND,ND
F27Q/V64Q/G104Q,ND ND ND,ND
A33G/N54F/V99D,5.34 ND ND,5.34
Y32Q/Y60L/R101P,ND ND ND,ND
G26N/M34W/K65H,4.06 ND ND,4.06
D31Q/S57F/K65A,2.16 2.12 1.63,1.97
N54P/G56W/I58S,ND ND ND,ND
D31R/R101C/Y105A,0.97 0.98 0.82,0.92
G26H/F27V/K65R,0.84 0.84 0.27,0.65
F29A/N54K/A61P,ND ND ND,ND
G103I/D107S,ND ND 2.56,2.56
Y32L/V99A,ND ND ND,ND
D30E/H35A/G56Y,ND ND ND,ND
I51W/V99P/G104W,ND ND ND,ND
G50H/S63E/Y105K,ND ND ND,ND
R101D/D107T/Y108R,3.50 3.07 3.13,3.24
H35Y/I58S/V64E,ND ND ND,ND
F27I/F29G/G100W,ND 5.91 ND,5.91
I51P/S63Y/Y105S,5.61 ND ND,5.61
F27D/G59T/Y105I,ND ND ND,ND
N54R/V64L/V99G,ND ND 4.66,4.66
I51W/A61H/G104D,4.72 ND 4.84,4.78
G56K/Y60P,ND ND ND,ND
H35R/I51C/G104V,ND ND ND,ND
D31T/K65Q/F106Y,2.35 2.66 2.49,2.50
I51N/S57W/V99A,2.59 ND ND,2.59